Binding of CDR-mutated scFvs to a peptide of the spike HR2 region

Source: Li et al. 2023 (doi:10.1038/s41467-023-39022-2), MIT Lincoln Laboratory and A-Alpha Bio; data file from the FLAb repository.

Target: peptide PDVDLGDISGINAS, taken from heptad repeat 2 (HR2) of SARS-CoV-2 spike.

Parent: Ab-14, a human scFv built as VH, a (GGGGS)3 linker, VL. Only the CDRs of the light chain vary.
VH: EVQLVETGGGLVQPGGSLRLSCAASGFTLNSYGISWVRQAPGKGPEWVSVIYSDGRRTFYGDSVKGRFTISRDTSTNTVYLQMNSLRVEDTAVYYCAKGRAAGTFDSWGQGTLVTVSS
VL: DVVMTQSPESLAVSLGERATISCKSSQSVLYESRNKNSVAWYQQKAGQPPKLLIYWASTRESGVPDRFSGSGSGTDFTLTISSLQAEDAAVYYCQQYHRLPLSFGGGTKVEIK

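The starting antibody came from a phage panning campaign against this peptide. These sequences belong to a second round, designed from the earlier measurements on random variants of the parent. Several design methods are mixed in this list. Affinity was read by AlphaSeq, a pooled yeast mating assay with surface-displayed partners. Mating (16 h, 30 °C) was followed by selection of diploids and sequencing of their barcodes. The ratio of observed to expected reads was calibrated, replicate by replicate, on BCL2-family standards whose Kd was known from biolayer interferometry. There are six technical replicates.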

Changes read parent residue, position, new residue, counted from the first residue of the VL shown. Variants here have at most six changes. Each Kd is an estimate from the mating assay, the geometric mean of the replicates in which the pair was seen; lower is stronger. A pair that was not seen in any replicate is written "no signal"; this usually means weak binding, but a binder can also be missed. The authors' rule: three or more of the six replicates give a measured affinity, fewer mean a poor binder. As a blank, each scFv also met three strains without target: over all light chain designs, 4% of these pairings were detected, typically at 430 nM and seldom below 38 nM. Values of this round are not directly comparable with the first-round values of the same sequences. Of ten entries with the parent sequence, four were seen in most replicates (averages 2.2 nM to 240 nM), three in one and three in none, so single entries are noisy. Some sequences occur more than once in the pool; their replicates are pooled.

For S25I S26G S28G W56G S103H, the assay gave no signal (0 of 6 replicates).
For W56G T59K E61P, the assay gave no signal (0 of 6 replicates).
For S25L V29H W56Q T59Q, the assay gave 360 pM (6 of 6 replicates).
For S25L K36F W56N E61M, the assay gave 2.3 nM (6 of 6 replicates).
For S25V S26E L30P W56N, the assay gave 30 nM (6 of 6 replicates).
For S25L S33M W56D, the assay gave 300 pM (6 of 6 replicates).
For S33M R34P S58T, the assay gave 170 nM (5 of 6 replicates).
For S26G S28G K36H W56G S103H, the assay gave 1.5 nM (6 of 6 replicates).
For W56E T59S, the assay gave 51 nM (1 of 6 replicates).
For S25L V29W W56N A57G, the assay gave 2.3 nM (6 of 6 replicates).
For V29E Y31A S33H E61Q, the assay gave 110 nM (5 of 6 replicates).
For S25L V29F N35W W56G T59Q P101T, the assay gave 74 nM (1 of 6 replicates).
For S25L V29D Y31G W56H, the assay gave 740 pM (6 of 6 replicates).
For Q27I V29E N35M W56E, the assay gave 1.7 nM (6 of 6 replicates).
For L30G W56G E61S L100H, the assay gave 5.1 µM (1 of 6 replicates).
For K24H W56N, the assay gave 13 nM (12 of 12 replicates).
For S25Q Y31M K36S W56D H98V, the assay gave 1.6 nM (6 of 6 replicates).
For S25L W56G Q96A, the assay gave 1.0 nM (6 of 6 replicates).
For S25L S26Q V29Q W56H E61C, the assay gave 2.1 nM (6 of 6 replicates).
For S25L S26P V29M W56Q S62E S103T, the assay gave 530 pM (6 of 6 replicates).
For Q27I V29Y R34M K36P W56E S62Q, the assay gave 1.0 nM (6 of 6 replicates).
For S28A N35V, the assay gave 27 nM (2 of 6 replicates).
For S25I R34F, the assay gave 11 nM (4 of 6 replicates).
For S25M S26P R34Q H98L, the assay gave 1.5 nM (6 of 6 replicates).
For K24Y S25L S26Q W56N, the assay gave 420 pM (6 of 6 replicates).
For K24H Q27P S38N W56N S62D, the assay gave 460 pM (6 of 6 replicates).
For S25V W56E S62Q, the assay gave 730 pM (6 of 6 replicates).
For W56N S58E S103G, the assay gave 23 nM (6 of 6 replicates).
For S25F V29T W56N S58Q E61L S62E, the assay gave 430 pM (6 of 6 replicates).
For S26Q V29Q L30E W56H E61L, the assay gave 2.3 nM (6 of 6 replicates).
For Q27I V29Y A40Y W56E, the assay gave no signal (0 of 6 replicates).

The first 2 entries again:

changes	Kd	detected
S25I S26G S28G W56G S103H	no signal	0 of 6
W56G T59K E61P	no signal	0 of 6